Data reported in PMC10089971 (British journal of pharmacology, 2023).

Settings: CPT-11 co-administration

For CCc1c2c(nc3ccc(OC(=O)N4CCC(N5CCCCC5)CC4)cc13)-c1cc3c(c(=O)n1C2)COC(=O)[C@]3(O)CC [CPT-11, Irinotecan hydrochloride], the morphine metabolism was “did not appear to alter morphine metabolism”.

Structures can show the parent of a compound that is named as a salt.
